Assay results from patent US20040198743A1 (Schering Corporation, priority 2003, published 2004).

Sequences of proteins named here, by UniProt entry; tags and fusion partners are left off.
UniProt Q9Y5N1, whole entry: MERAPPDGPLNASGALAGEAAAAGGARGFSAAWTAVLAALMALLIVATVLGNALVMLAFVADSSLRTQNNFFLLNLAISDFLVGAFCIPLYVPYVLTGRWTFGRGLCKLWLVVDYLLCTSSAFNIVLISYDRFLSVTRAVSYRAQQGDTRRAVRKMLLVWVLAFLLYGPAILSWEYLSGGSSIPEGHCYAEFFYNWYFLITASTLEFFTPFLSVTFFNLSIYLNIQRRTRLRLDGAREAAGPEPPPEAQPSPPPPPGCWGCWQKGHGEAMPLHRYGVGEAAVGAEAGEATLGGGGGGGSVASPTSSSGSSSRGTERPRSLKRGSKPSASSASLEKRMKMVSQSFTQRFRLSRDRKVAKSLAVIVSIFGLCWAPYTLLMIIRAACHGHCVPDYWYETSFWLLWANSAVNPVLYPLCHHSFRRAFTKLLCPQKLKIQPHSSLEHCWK

Target: Histamine Receptor H3 (Homo sapiens, UniProt Q9Y5N1)
Assay: Membrane binding assay, [3H]-N'-methylhistamine for H3 binding
Conditions: concentration not given

Q: For `CC(C)(C(=O)O)c1ccc(C(=O)CCCN2CCC(OC(c3ccccc3)c3ccccc3)CC2)cc1`, which “H3 Ki (nM), value printed as %” value is on record?
A: 1%
